Reference: PubChem BioAssay (EPA / NIEHS)
Only a part is listed here, and it is no random draw. Records with an inconclusive call do not appear. Activity calls are given as the source filed them. Rule for the calls: active = hit-call score of the fitted dose curve at least 0.9, where 1 is the maximum; inconclusive = response in the unintended direction; inactive = score below 0.9.

Key:
[1] = Tanguay_ZF_120hpf_AXIS_legacy: (Legacy) Oregon State University Tanguay Lab 120 Hour Post-fertilization zebrafish Assay for Body Axis Malformation (AID 2283635)
Outline: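 Static 6–120 hpf chemical exposure of dechorionated wild-type 5D zebrafish, one per well at 28C; morphology endpoint scored binary at 120 hpf relative to DMSO control.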

[2] = Tanguay_ZF_120hpf_SNOU_legacy: (Legacy) Oregon State University Tanguay Lab 120 Hour Post-fertilization zebrafish Assay for Snout Malformation (AID 2283637)
Description: Tanguay_ZF_120hpf_legacy is a whole embryo, multiplexed endpoint assay using zebrafish larvae exposed for 120 hours post fertilization on a 96-well plate.Tanguay_ZF_120hpf_SNOU_legacy is one of one assay component(s) measured or calculated from the Tanguay_ZF_120hpf_legacy assay. It is designed to make measurements of zebrafish development as detected with brightfield microscopy of developing zebrafish embryos.Data from the assay component Tanguay_ZF_120hpf_SNOU_legacy was analyzed into 1 assay endpoints. This assay endpoint, Tanguay_ZF_120hpf_SNOU_legacy, was analyzed in the positive analysis fitting direction relative to DMSO as the negative control and baseline of activity. […]
Zebrafish husbandry: Tropical 5D wild-type adult zebrafish were housed in at an approximate density of 1000 per 100 gallon tank at the Sinnhuber Aquatic Research Laboratory, Oregon State University, Corvallis, OR. […] At 24 hpf, embryos were assessed for photomotor response using a custom photomotor response analysis tool (PRAT) and for developmental toxicity endpoints (MO24: mortality at 24 hpf, DP: developmental progression, SM: spontaneous movement, and NC: notochord distortion). At 120 hpf, locomotor activity was measured using Viewpoint Zebralab and assessed for 18 endpoints. […] If mortality occurred for an embryo (at either 24 or 120 hpf), the non-mortality endpoints were not measured.

[3] = Tanguay_ZF_120hpf_JAW_legacy: (Legacy) Oregon State University Tanguay Lab 120 Hour Post-fertilization zebrafish Assay for Jaw Malformation (AID 2283638)
Outline: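 Static waterborne exposure of dechorionated wild-type (Tropical 5D) zebrafish from 6 to 120 hpf at 28C, 0.64% DMSO vehicle; 5uM trimethyltin chloride served as positive control. Jaw morphology recorded as binary at 120 hpf.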

[4] = Tanguay_ZF_120hpf_OTIC_legacy: (Legacy) Oregon State University Tanguay Lab 120 Hour Post-fertilization zebrafish Assay for Otic Vesicle Malformation (AID 2283639)
Outline: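 Otic vesicle malformation is read as a yes/no morphology call at 120 hpf. Exposure is static at 28C with 0.64% (vol/vol) DMSO; embryos that die are excluded from non-mortality endpoints.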

[5] = Tanguay_ZF_120hpf_PE_legacy: (Legacy) Oregon State University Tanguay Lab 120 Hour Post-fertilization zebrafish Assay for Pericardial Edema (AID 2283640)
Outline: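 Read-out is the presence or absence of pericardial edema at 120 hpf under brightfield, with gain of signal fitted against DMSO controls. Larvae (5D wild-type) were statically exposed at 28C with 0.64% final DMSO.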

[6] = Tanguay_ZF_120hpf_CFIN_legacy: (Legacy) Oregon State University Tanguay Lab 120 Hour Post-fertilization zebrafish Assay for Caudal Fin Malformation (AID 2283649)
Outline: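 Embryos were collected from Tropical 5D wild-type adults and dechorionated at 4 hpf. At 6 hpf each was exposed, one per well, at 0.64% DMSO and 28C. At 120 hpf fin morphology was scored; dead embryos were excluded.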

[7] = Tanguay_ZF_120hpf_PIG_legacy: (Legacy) Oregon State University Tanguay Lab 120 Hour Post-fertilization zebrafish Assay for Pigmentation Malformation (AID 2283650)
Outline: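 Tropical 5D wild-type zebrafish embryos, dechorionated with pronase at 4 hpf, were exposed singly from 6 hpf to 120 hpf statically at 28C in sealed, dark plates with 0.64% DMSO; pigmentation scored present/absent by brightfield microscopy, fitted against DMSO.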

[8] = Tanguay_ZF_120hpf_CIRC_legacy: (Legacy) Oregon State University Tanguay Lab 120 Hour Post-fertilization zebrafish Assay for Circulatory Malformation (AID 2283651)
Outline: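 Using wild-type Tropical 5D zebrafish, we exposed dechorionated embryos from 6 to 120 hpf in embryo medium with 0.64% DMSO. Circulatory defects were scored as present or absent; 5uM trimethyltin chloride served as positive control.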

[9] = Tanguay_ZF_120hpf_SWIM_legacy: (Legacy) Oregon State University Tanguay Lab 120 Hour Post-fertilization zebrafish Assay for Swim Bladder Malformation (AID 2283654);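 note: swim bladder malformation in each larva scored yes or no under brightfield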
Outline: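 Dechorionated Tropical 5D wild-type embryos, placed singly from 6 hpf, were statically exposed at 28C to 120 hpf with 0.64% DMSO final; swim bladder malformation was scored present/absent by brightfield microscopy, gain of signal relative to DMSO controls.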

[10] = Tanguay_ZF_120hpf_TRUN_legacy: (Legacy) Oregon State University Tanguay Lab 120 Hour Post-fertilization zebrafish Assay for Truncated Body (AID 2283655)
Outline: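 5D wild-type larvae; pronase dechorionation; static exposure 6→120 hpf, 28C; DMSO 0.64% final; 5uM trimethyltin chloride positive control. Readout: presence/absence of truncated body, analyzed relative to DMSO.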

Measured: outcome

O=[N+]([O-])c1ccccc1[N+](=O)[O-]
inactive: all assays above
